What is called IC50 is the concentration at which inhibition is half-maximal.

Protein sequences, listed by entry. Tags and fused reporters are not part of them.
UniProt P03372, whole entry: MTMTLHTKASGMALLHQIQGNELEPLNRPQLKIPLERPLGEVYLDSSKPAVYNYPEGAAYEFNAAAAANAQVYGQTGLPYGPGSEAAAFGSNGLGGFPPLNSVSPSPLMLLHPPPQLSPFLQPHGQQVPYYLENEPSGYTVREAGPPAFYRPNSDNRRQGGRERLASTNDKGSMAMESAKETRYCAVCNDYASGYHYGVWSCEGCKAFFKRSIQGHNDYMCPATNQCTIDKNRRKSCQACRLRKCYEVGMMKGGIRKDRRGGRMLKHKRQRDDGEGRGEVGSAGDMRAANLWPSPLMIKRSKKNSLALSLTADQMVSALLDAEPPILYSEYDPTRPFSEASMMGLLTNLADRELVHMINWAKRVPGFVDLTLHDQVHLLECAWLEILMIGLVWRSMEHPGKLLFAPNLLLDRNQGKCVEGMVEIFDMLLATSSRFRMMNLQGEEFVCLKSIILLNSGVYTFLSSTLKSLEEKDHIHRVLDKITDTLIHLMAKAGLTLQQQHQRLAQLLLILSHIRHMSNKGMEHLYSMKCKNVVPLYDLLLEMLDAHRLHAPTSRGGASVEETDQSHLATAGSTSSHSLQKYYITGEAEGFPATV

In this assay the target is oestrogen receptor (ER) (Homo sapiens, UniProt P03372). Nature of the assay: Anti-oestrogenic action in MVLN cells (inhibition of estradiol-induced luciferase, transactivation antagonism). The conditions noted are these: read-out: Anti-oestrogenic action in vitro: MVLN transactivation antagonism IC50, inhibition of estradiol-induced luciferase activity.
In the case of `CN(CCCCCCC1=C(c2ccc(F)c(O)c2)CCCc2cc(O)ccc21)CCC[S+]([O-])CCCC(F)(F)C(F)(F)F` (stereo not drawn), the IC50 is 2 nM. `CN(CCCCCCC1=C(c2cccc(O)c2)CCCc2cc(O)ccc21)CCC[S+]([O-])CCC(F)(F)C(F)(F)F` (stereo not drawn): the IC50 was determined as 2 nM.

On to `CN(CCCCCCC1=C(c2ccc(O)cc2)CCCc2cc(O)ccc21)CCCSCCCC(F)(F)C(F)(F)F`, for which the IC50 was 2 nM.

Source of the values: US20150080438A1, “6,7-Dihydro-5H-benzo[7]annulene derivatives, processes for their preparation, pharmaceutical products comprising them and their use for preparing medicaments” (Bayer Intellectual Property GmbH, priority 2011, published 2015).
